Assay results from US11213514B2, “Alpha-1-adrenergic receptor agonist therapy” (The Regents of the University of California, priority 2016, dated 2022).

Amino acid sequences for entries named in this document (tags omitted). A change or cut given only in a name is not applied to a line headed by its entry.
UniProt P35348: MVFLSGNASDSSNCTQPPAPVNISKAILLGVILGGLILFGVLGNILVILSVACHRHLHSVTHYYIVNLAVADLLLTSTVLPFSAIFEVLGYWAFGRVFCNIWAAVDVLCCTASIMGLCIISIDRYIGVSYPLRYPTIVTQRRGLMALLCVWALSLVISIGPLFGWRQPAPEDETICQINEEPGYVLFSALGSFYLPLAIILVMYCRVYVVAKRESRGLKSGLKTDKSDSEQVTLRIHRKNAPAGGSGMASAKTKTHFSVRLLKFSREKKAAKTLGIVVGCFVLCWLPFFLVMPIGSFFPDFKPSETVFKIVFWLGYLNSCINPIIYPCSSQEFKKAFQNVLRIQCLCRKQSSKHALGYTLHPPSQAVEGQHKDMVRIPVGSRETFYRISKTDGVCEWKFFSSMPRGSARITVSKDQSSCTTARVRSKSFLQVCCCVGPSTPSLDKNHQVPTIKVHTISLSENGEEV

Experiments:
ERK = ERK activation in neonatal rat ventricular myocytes (pERK/ERK Western blot); type: cell-based; conditions: NRVMs, dabuzalgron 10 μM, 15 minutes
Protocol: FIGS. 4A-4F. In neonatal rat ventricular myocytes, dabuzalgron activates ERK, a canonical downstream signaling partner of the α1A-AR. Neonatal rat ventricular myocytes (NRVMs) were pre-treated with the β-AR antagonist propranolol then exposed for 15 minutes to various concentrations of dabuzalgron, using the non-selective α1-AR agonist norepinephrine (NE) as a positive control. The reaction was stopped immediately and lysates were blotted for total and phospho-ERK (pERK). FIG. 4A. Representative Western blot. FIG. 4B. The EC50 was calculated from 4 concentrations of Dabuzalgron across 5 separate experiments. FIG. 4C. Summary of pERK/ERK for experiments using 5 different NRVM isolations. The average pERK/ERK ratio for each experiment was derived from at least 2 individual wells and normalized to the pERK/ERK ratio for vehicle treated NRVMs. FIG. 4D and FIG. 4E. […] Heart lysates were blotted for pERK and ERK. Results were compared using one way ANOVA with Tukey post-test. FIG. 4F.
Dabuzalgron protects neonatal rat ventricular myocytes from cell death due to doxorubicin. ERK1/2 activation contributes to the cardioprotective effects of dabuzalgron. […]
All results are presented as mean±SEM. […] EC50 for ERK activation was calculated using sigmoidal dose-response analysis (Prism).

wild type mice = experiment: Indexed heart weight after 7-day gavage treatment in uninjured mice; type: in vivo, mouse; conditions: 10 μg/kg gavage twice daily for 7 days (FIG. 1B)
Protocol: FIGS. 1A-1C. […] FIG. 1A. Blood pressure (BP) and heart rate (HR) were measured non-invasively in male mice for 10 consecutive days using a CODA Volume Pressure Recording tail cuff system (Kent Scientific). All daily values represent the average of at least 20 cuff inflations. Mice were acclimatized to the apparatus for the first 5 days, during which no drug was administered. On Days 6-10, mice received Dabuzalgron (100 ng/kg-100 μg/kg) or water by gavage twice daily. HR and systolic BP are unaffected by 5 days of treatment with Dabuzalgron. FIG. 1B. Male mice were treated with Dabuzalgron 10 μg/kg by gavage twice daily for 7 days. Heart weight (HW, in mg) was indexed to tibia length (TL, in mm). FIG. 1C. Quantitative RT-PCR was performed using heart tissue snap frozen at the time of sacrifice. Target transcripts (ANP=atrial natriuretic peptide; MHCβ=myosin heavy chain beta; α-skAct=alpha skeletal actin) were quantified relative to two standard transcripts (Polr2a=DNA-directed RNA polymerase II, subunit A; TBP=TATA-binding protein).
To test the effect of an α1A agonist on cardiac hypertrophy, we administered dabuzalgron (1-100 μg/kg/day) or vehicle by gavage twice daily for 7 days. […] (FIG. 1B).

α1A = α1A (Homo sapiens, UniProt P35348); conditions: preclinical testing [9]; cited from earlier work

## Cc1c(OCC2=NCCN2)ccc(Cl)c1NS(C)(=O)=O [dabuzalgron, N-[6-chloro-3-(4,5-dihydro-1H-imidazol-2-ylmethoxy)-2-methylphenyl]methanesulfonamide]
ERK
  increase of pERK/ERK ratio: roughly 1.5 fold
Wild type mice
  heart weight indexed to tibia length, dabuzalgron vs water: no difference
α1A
  α1A selectivity: excellent
